For the experiment, the system named is CCRF-CEM. Put plainly: In vitro growth inhibition against CCRF-CEM human lymphoblast cells.

This is a selection: effects in other tests are not listed, and their absence says nothing.

In general, IC50 refers to the concentration at which inhibition is half-maximal. A higher IC50 goes with weaker potency in that assay. `ClCC[Se][Se]CCCl`: the IC50 turned out to be 0.25 µM.

These data come from ChEMBL document CHEMBL1123707.
